Test system: cMdr1-KO MDCK-EV cells
Assay: In vitro permeability (Papp), transwell transport

Which results are given for 3H-atenolol?
Papp Apical to basolateral (5 µM, 120 min, n=3, mean (CV%)): 1.47 (25.2) 10^−6 cm/s; Papp Basolateral to apical (5 µM, 120 min, n=3, mean (CV%)): 1.45 (8.97) x 10-6 cm/s; Efflux ratio (ratio of mean values): 0.985

— article PMC11706420, “Establishing a physiologically based pharmacokinetic framework for aldehyde oxidase and dual aldehyde oxidase‐CYP substrates” (CPT: Pharmacometrics & Systems Pharmacology, 2024)
